Paper PMC5048153, “Scaffold Hopping Toward Agomelatine: Novel 3, 4-Dihydroisoquinoline Compounds as Potential Antidepressant Agents” (Scientific Reports, 2016)

Protein sequences, listed by entry. Tags and fused reporters are not part of them. Residues count along the entry.
UniProt P28335, 33-458: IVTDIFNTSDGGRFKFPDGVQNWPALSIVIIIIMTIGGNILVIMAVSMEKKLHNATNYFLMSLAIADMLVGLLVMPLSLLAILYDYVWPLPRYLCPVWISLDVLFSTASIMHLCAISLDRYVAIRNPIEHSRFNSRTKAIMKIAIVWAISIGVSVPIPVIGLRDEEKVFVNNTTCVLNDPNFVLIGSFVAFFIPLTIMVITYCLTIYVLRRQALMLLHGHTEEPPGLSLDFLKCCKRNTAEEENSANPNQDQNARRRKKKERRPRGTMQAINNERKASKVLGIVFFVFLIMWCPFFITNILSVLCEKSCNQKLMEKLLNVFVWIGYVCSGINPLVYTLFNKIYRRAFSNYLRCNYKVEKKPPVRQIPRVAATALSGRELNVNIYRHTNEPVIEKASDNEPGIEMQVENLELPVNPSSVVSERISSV

Molecular target: 5-HT2C receptor (Homo sapiens, UniProt P28335)
Assay: FLIPR assay for 5-HT2C antagonism
Type: cell-based
Conditions: FLIPR calcium flux

COc1ccc2cccc(CCNC(C)=O)c2c1 [Agomelatine]
IC50: 8.51 µM
